Measured values from ChEMBL document CHEMBL3351312, “Design of Fluorine-Containing 3,4-Diarylfuran-2(5H)-ones as Selective COX-1 Inhibitors” (ACS Med Chem Lett, 2014).

Chains of the proteins cited; added tags and fusions are not shown.
UniProt P23219, whole entry: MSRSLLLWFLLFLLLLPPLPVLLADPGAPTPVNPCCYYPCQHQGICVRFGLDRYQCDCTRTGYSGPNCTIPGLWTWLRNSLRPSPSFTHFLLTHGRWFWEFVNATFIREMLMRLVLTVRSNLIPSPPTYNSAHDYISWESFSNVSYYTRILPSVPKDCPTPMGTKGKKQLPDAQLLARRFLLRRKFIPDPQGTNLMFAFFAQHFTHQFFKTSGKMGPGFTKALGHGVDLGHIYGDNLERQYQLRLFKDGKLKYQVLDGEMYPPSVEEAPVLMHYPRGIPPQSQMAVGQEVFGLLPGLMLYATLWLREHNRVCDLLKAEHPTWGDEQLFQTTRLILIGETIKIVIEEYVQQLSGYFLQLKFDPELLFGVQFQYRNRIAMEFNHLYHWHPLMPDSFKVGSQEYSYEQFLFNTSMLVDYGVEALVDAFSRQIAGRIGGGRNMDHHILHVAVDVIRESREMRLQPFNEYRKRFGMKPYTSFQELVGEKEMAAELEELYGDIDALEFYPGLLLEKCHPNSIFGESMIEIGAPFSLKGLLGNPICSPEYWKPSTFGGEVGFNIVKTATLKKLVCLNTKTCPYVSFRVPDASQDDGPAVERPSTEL

Biological target: Prostaglandin G/H synthase 1 (Homo sapiens, UniProt P23219)
Assay: Inhibition of COX-1 in human OVCAR3 cells by cell-based assay
Parameters: species or system OVCAR-3
Procedure, shortened: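 Intact human cancer cells, OVCAR3 (COX-1-expressing) or 1483 HNSCC (COX-2-expressing), incubated with test compounds in the presence of [1-14C]-arachidonic acid. COX-derived radiolabeled prostaglandin formation was read by TLC, and IC50 values were derived.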

COc1ccc(C2=C(c3cccc(F)c3)C(=O)OC2)cc1
IC50: 0.18 µM
